Measured values taken from US9295673B2 (dated 2016).
pIC50: −log10 of the molar value.

Sequences of proteins named here, by UniProt entry; tags and fusion partners are left off. A change or cut given only in a name is not applied to a line headed by its entry.
UniProt O00329: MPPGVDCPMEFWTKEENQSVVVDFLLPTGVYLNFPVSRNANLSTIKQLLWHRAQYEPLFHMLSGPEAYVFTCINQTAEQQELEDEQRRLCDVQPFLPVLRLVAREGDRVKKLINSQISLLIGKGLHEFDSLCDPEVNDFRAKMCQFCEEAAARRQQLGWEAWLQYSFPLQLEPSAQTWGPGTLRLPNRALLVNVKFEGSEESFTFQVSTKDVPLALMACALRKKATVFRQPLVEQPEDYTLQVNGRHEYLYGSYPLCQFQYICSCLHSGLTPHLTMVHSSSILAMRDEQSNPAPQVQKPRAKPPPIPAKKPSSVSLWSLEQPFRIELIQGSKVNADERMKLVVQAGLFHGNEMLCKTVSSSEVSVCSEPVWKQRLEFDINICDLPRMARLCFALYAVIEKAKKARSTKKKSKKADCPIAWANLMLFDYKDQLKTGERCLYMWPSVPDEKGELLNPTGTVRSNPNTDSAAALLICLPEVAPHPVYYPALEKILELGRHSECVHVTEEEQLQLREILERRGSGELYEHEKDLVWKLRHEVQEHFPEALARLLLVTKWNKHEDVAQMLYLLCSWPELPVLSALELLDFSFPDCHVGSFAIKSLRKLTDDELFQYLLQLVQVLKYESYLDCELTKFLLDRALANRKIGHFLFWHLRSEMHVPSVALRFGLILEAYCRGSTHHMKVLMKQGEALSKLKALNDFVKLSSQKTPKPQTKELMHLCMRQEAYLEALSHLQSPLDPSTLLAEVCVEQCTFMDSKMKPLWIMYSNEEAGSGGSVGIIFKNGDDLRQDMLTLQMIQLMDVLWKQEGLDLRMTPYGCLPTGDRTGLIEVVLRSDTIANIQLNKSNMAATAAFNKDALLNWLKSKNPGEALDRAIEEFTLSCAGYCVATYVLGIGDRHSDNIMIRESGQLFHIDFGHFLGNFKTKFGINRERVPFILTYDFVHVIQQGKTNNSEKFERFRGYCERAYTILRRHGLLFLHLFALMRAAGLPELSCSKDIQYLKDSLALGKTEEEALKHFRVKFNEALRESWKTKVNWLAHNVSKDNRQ

Biological target: PI3K δ (Homo sapiens, UniProt O00329)
Experiment: PI 3-Kinase (human) HTRF assay, PI3K δ
Conditions: read-out: PI3K δ IC50

Question: `Nc1nc2cc(-c3ccc4ncc(C(=O)NC5CCC(O)CC5)n4c3)ccc2o1` (stereo not shown) [Compound 143] was tested. Which pIC50 did it give?
Answer: Its pIC50 is > 7.00.
